## Measured affinities in a library of Ab-91 heavy chain variants

Data: MIT Lincoln Laboratory AlphaSeq set, Engelhart et al. 2022, doi:10.1038/s41597-022-01779-4, as distributed in FLAb.

Antigen: PDVDLGDISGINAS, a 14-residue peptide of the SARS-CoV-2 spike HR2 region.

Each scFv is VL, a 15-residue (Gly4Ser)3 linker, VH, as in the parent Ab-91, and differs from it in the CDRs of the heavy chain only.
VL: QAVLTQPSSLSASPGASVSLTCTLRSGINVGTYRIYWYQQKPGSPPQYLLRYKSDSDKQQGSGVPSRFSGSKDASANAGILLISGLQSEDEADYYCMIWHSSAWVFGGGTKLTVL
VH: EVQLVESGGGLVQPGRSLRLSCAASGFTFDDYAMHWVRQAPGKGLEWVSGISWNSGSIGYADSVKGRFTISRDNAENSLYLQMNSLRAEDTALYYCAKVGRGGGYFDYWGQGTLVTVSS

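The parent was found by panning a naive human phage display library on the peptide. Library AAYL51 holds single substitutions and randomly drawn double and triple substitutions in the CDRs. Affinity was read by AlphaSeq, a pooled yeast mating assay with surface-displayed partners. Mating (16 h, 30 °C) was followed by selection of diploids and sequencing of their barcodes. The ratio of observed to expected reads was calibrated, replicate by replicate, on BCL2-family standards whose Kd was known from biolayer interferometry. Each pool was mated in three replicate cultures.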

Variants are written as CDR1, CDR2 and CDR3 of the heavy chain (limits as in the source). Parent: GFTFDDYAMH, GISWNSGSIGYADSVK, VGRGGGYFDY. Every variant below is changed at V64 of the VH (sequential numbering). Each Kd is an estimate from the mating assay, the geometric mean of the replicates in which the pair was seen; lower is stronger. Where no diploid with the target was found in any replicate, the entry reads "nd": below detection, most likely a poor binder, though not proof of it. Nonspecific signal, from three strains lacking the peptide, appeared in 21% of pairings of library AAYL51, centred on 34 µM (5% of these signals below 1.8 µM); values are not corrected for it. In this assay the parent's reference entry averaged 72 nM; its copy inside this library read 7.5 nM.

The variant GFTFDDYAMH | GISWNSGSIGYADSYK | VGRGGGYHRY showed nd (0 of 3 replicates).
The variant GFTFDDYAMH | GISWNSGSIGYADSWK | VGDGGGVFDY showed 26 µM (1 of 3 replicates).
The variant GFTFDDYFMH | GISWNSGSIGYADSDK | VGRGGGYFQY showed 71 µM (3 of 3 replicates).
The variant GFTFDDYAMH | GISWNSGSIGYADPAK | VGRGGGYFDY showed 310 nM (1 of 3 replicates).
The variant GFTFDDYAMH | GISWNSGSIGYADFIK | VYRGGGYFDY showed 160 µM (1 of 3 replicates).
The variant GDTFDDYAFH | GISWNSGSIGYADSPK | VGRGGGYFDY showed 30 µM (1 of 3 replicates).
The variant GFTFDRYAMH | GISWNSGSIGYIDSQK | VGRGGGYFDY showed 360 µM (3 of 3 replicates).
The variant GFTFDDYAMH | GISWNSGSIGLADSNA | VGRGGGYFDY showed nd (0 of 3 replicates).
The variant GFTFDDKAMH | GISWNSGSIGYADSGK | VGRGGGYFDY showed nd (0 of 3 replicates).
The variant GFTFDDYAMH | GISWNSGSIGYADSQK | VGRGGGPFFY showed 23 µM (2 of 3 replicates).
The variant GFTFDDAAMH | GISWNSGSIGYADSGK | VGGGGGYFDY showed nd (0 of 3 replicates).
The variant GFTFDDYAMH | GISDNSGSIGYADSGK | VGRGGGYFDY showed nd (0 of 3 replicates).
The variant GFTFDDYAMH | GISQNSGSIGYADSTK | VGRGGGEFDY showed nd (0 of 3 replicates).
The variant GFTFDDYAMH | GISWNSGSIGIADSCK | VGRGGGYFDY showed nd (0 of 3 replicates).
The variant GFTFDDYAMH | GISWNSGSRGYADSQK | VGRGGGTFDY showed 110 µM (3 of 3 replicates).
The variant GFTFDDYAVH | GISWNSGSIGYADSLK | VGRGRGYFDY showed 420 µM (1 of 3 replicates).
The variant GFTFDDYAMH | GISWNSGSIGYNDTPK | VGRGGGYFDY showed nd (0 of 3 replicates).
The variant GFTFDDYKMH | GISWNSGSIGYADSYK | VGRGGGPFDY showed nd (0 of 3 replicates).
The variant GFTYDDYAMH | GISWNDGSIGYADSLK | VGRGGGYFDY showed 240 µM (3 of 3 replicates).
The variant GFDFDDYAMH | GFSWNSGSIGYADSEK | VGRGGGYFDY showed nd (0 of 3 replicates).
The variant GFTFDDYAMH | GISWNSGSIGYADSPP | VGRRGGYFDY showed 110 µM (2 of 3 replicates).
The variant GFTFDDYAMH | GISWNSGSIGYADSAK | VGRGGGYFDY showed 5.1 µM (1 of 3 replicates).
The variant GFDFDDYAMH | GISYNSGSIGYADSYK | VGRGGGYFDY showed 12 nM (3 of 3 replicates).
The variant GFTFDDWAMH | GISWNSGSIGYADSIK | VGRGGGYCDY showed 22 µM (3 of 3 replicates).
The variant GFTFDDYAMH | GISWNSGSIGYADSGK | VGLGGGYFDW showed 1.3 µM (3 of 3 replicates).
The variant GFTFDDYAMH | GISCNSNSIGYADSDK | VGRGGGYFDY showed 82 µM (1 of 3 replicates).
The variant GFTFDDYAMH | GISWNSTSIGYAKSLK | VGRGGGYFDY showed nd (0 of 3 replicates).
The variant GFTFDDYQMH | GISWNSGSIGYADSNK | SGRGGGYFDY showed 30 µM (1 of 3 replicates).
The variant GFTFLDYAMH | GISWNSGSIRYADSEK | VGRGGGYFDY showed 66 µM (1 of 3 replicates).
The variant GFTFDNYAMH | GISWLSGSIGYADSYK | VGRGGGYFDY showed 26 µM (2 of 3 replicates).
The variant GFTFPDYARH | GISWNSGSIGYADSGK | VGRGGGYFDY showed 470 µM (3 of 3 replicates).
The variant GFTFDDYAMH | GISWNSGAIGYADSYK | AGRGGGYFDY showed nd (0 of 3 replicates).
The variant GFTFDDYAMW | GGSWNSGSIGYADSIK | VGRGGGYFDY showed 49 µM (3 of 3 replicates).
The variant GFTFDDYAMH | GICWNDGSIGYADSGK | VGRGGGYFDY showed 40 µM (3 of 3 replicates).
The variant GFTFDDYAMH | GIEWNSGSIGYFDSWK | VGRGGGYFDY showed 5.4 µM (2 of 3 replicates).
The variant GFTFDDYAMH | GILWNSGSIGYADSAK | VGRGGGYFDY showed 7.2 µM (1 of 3 replicates).

Top 3 of the variants detected in all replicates, tightest first:

CDR-H1,CDR-H2,CDR-H3,Kd,seen in
GFDFDDYAMH,GISYNSGSIGYADSYK,VGRGGGYFDY,12 nM,3/3
GFTFDDYAMH,GISWNSGSIGYADSGK,VGLGGGYFDW,1.3 µM,3/3
GFTFDDWAMH,GISWNSGSIGYADSIK,VGRGGGYCDY,22 µM,3/3